# Laboratory results as given in article PMC3726442, “Relationship between Genotypes Sult1a2 and Cyp2d6 and Tamoxifen Metabolism in Breast Cancer Patients” (PLoS ONE, 2013).
# Assay: Plasma concentrations of tamoxifen and its metabolites in breast cancer patients on tamoxifen, by HPLC-tandem mass spectrometry
# [1] = all samples analyzed, n = 125, before daily 20 mg TAM dose
structure (smiles),measurement,setting,value
CC/C(=C(\c1ccccc1)c1ccc(OCCN(C)C)cc1)c1ccccc1 [Tamoxifen],mean plasma concentration (±SD),[1],202.32 ± 94.55 ng/mL
same,median plasma concentration,[1],176.98 ng/mL
same,"plasma concentration, mean ±SD","genotype CYP2D6 I/P, n = 8",173.84 ± 65.10 ng/mL
same,"plasma concentration, median","genotype CYP2D6 I/P, n = 8",185.42 ng/mL
same,"plasma concentration, median","genotype CYP2D6 wt/I, n = 4",189.98 ng/mL
same,"plasma concentration, median","genotype CYP2D6 wt/P, n = 26",169.64 ng/mL
same,"plasma concentration, median","genotype CYP2D6 wt/wt, n = 78",176.91 ng/mL
same,"plasma concentration, mean ±SD","genotype CYP2D6 wtxN/P, n = 2",183.66 ± 114.20 ng/mL
same,"plasma concentration, median","genotype CYP2D6 wtxN/P, n = 2",183.66 ng/mL
same,"plasma concentration, median","genotype CYP3A4 wt/*17, n = 9",187.36 ng/mL
same,"plasma concentration, median","genotype CYP3A4 wt/wt, n = 107",175.91 ng/mL
same,"plasma concentration, median","genotype CYP3A5 *3/*3, n = 117",176.98 ng/mL
same,"plasma concentration, median","genotype SULT1A1 wt/*2, n = 46",171.44 ng/mL
same,"plasma concentration, median","genotype SULT1A1 wt/wt, n = 60",185.11 ng/mL
same,"plasma concentration, mean ±SD","genotype SULT1A2 *2/*2, n = 16",191.59 ± 85.40 ng/mL
same,"plasma concentration, median","genotype SULT1A2 *2/*2, n = 16",173.20 ng/mL
same,"plasma concentration, mean ±SD","genotype SULT1A2 *3/*3, n = 5",188.23 ± 69.26 ng/mL
same,"plasma concentration, median","genotype SULT1A2 wt/*2, n = 33",175.91 ng/mL
same,"plasma concentration, mean ±SD","genotype SULT1A2 wt/*3, n = 16",184.68 ± 75.43 ng/mL
same,"plasma concentration, median","genotype SULT1A2 wt/*3, n = 16",174.42 ng/mL
same,"plasma concentration, mean ±SD","genotype SULT1A2 wt/wt, n = 38",189.75 ± 71.12 ng/mL
same,"plasma concentration, median","genotype SULT1A2 wt/wt, n = 38",184.50 ng/mL
same,"plasma concentration, median","genotype SULT1E1 wt/*2, n = 28",186.14 ng/mL
same,"plasma concentration, median","genotype SULT1E1 wt/wt, n = 88",172.65 ng/mL
same,mean plasma concentration (±SD),patients not receiving CYP2D6 inhibitors,203.63 ± 96.19 ng/mL
